Laboratory results as given in US20220324909A1, “THERAPEUTIC PEPTIDES” (COHBAR, INC., priority 2019, published 2022).

Sequences of proteins named here, by UniProt entry; tags and fusion partners are left off. A change or cut given only in a name is not applied to a line headed by its entry.
UniProt P35414: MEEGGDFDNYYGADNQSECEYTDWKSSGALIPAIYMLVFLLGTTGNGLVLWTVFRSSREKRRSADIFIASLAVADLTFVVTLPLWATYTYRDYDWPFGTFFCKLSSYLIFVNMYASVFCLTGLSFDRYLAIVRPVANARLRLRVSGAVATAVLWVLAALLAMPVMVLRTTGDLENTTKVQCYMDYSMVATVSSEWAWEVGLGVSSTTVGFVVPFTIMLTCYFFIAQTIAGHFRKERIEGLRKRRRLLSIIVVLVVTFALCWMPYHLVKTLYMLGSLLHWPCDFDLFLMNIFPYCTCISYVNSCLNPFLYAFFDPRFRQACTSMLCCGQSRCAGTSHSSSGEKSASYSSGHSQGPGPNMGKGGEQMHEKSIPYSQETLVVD
UniProt Q9ULZ1: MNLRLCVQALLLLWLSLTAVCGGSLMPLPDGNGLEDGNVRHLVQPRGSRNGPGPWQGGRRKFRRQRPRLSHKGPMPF

How the values were obtained:
[1] = target: ProLink tagged human APJ (Apelin Receptor) in CHO-K1 AGTRL1 β-Arrestin cells (human) (UniProt P35414); experiment: cell-based or functional assay
[2] = target: Apelin Receptor (APJ) stably overexpressed in CHO-K1 AGTRL1 Gi cells (human) (UniProt P35414); experiment: cell-based or functional assay

Substance	β-Arrestin recruitment, reference response (500 nM Apelin-13, positive control) (% of Apelin-13 response) [1]	cAMP levels, reference response (500 nM Pyr-Apelin-13, 10 µM forskolin) (% of Pyr-Apelin-13 response) [2]
Apelin-13 (from UniProt Q9ULZ1 65-77) (ligand)	100	–
Pyr-Apelin-13 (from UniProt Q9ULZ1 65-77) (ligand)	–	100
